{
  "source": "patent US6310273A",
  "about": "“Inhibiting apoptosis in plants using a baculovirus p35 protease inhibitor gene” (The Regents of the University of California, priority 1999, dated 2001)",
  "origin": "cited, not measured here",
  "biological_target": "T1, caspase-3 (CPP32, apopain, Yama) (Homo sapiens, UniProt P42574)",
  "T1 construct": "purchased BIOMOL Research Laboratories, Inc. AK-700",
  "T1 sequence (P42574 29-175 limits assumed)": "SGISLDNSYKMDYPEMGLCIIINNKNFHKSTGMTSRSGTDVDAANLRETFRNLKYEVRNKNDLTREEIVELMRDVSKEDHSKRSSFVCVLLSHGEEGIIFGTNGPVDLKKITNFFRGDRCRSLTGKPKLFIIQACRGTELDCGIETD",
  "T1 sequence (P42574 176-277 limits assumed)": "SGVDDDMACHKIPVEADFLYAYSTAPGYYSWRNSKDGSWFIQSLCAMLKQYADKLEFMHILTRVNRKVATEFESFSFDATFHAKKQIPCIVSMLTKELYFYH",
  "conditions": "DEVD-p-nitroanilide cleavage, absorption at 405 nm; read-out: IC50, inhibition of caspase 3 substrate cleavage; cited from earlier work",
  "data": [
    {"smiles": "CC(=O)N[C@@H](CC(=O)O)C(=O)N[C@@H](CCC(=O)O)C(=O)N[C@H](C(=O)N[C@H](C=O)CC(=O)O)C(C)C", "note": "[Ac-DEVD-CHO]", "values": [
      {"measurement": "IC50", "result": 0.025, "unit": "µM"}
    ]}
  ]
}
